Earlier results on one substance are cited in US10759976B2, “Color changeable adhesives and methods of making such adhesives” (Sensor International, LLC, priority 2018, dated 2020).

For this series the following is noted: Table 2, carbon dioxide sensitive pigments/dyes.

In the case of β-methyl umbelliferone, the pKa is 7.8.

Broadly, the pKa is the pH at which an ionisable group is half protonated.
